# System: chicken red blood cells
# Test: Hemolytic test of QS21 adsorbed on composite
substance,measurement,setting,value
QS21,Delta DO,12.5 μg QS21/ml,1.756
same,Delta DO,25 μg QS21/ml,1.811
same,Delta DO,50 μg QS21/ml,1.806
same,Delta DO,100 μg QS21/ml,1.811

# Source: patent publication US20160235839A1, “CALCIUM FLUORIDE COMPOSITIONS” (priority 2013, published 2016)
